# Tests used:
# 5B3 antibody = experiment: ELISA binding / inhibition assay of 5B3 antibody with haptens
# DNP-Ab/anti-Ab complex = experiment: QCM amplified competition method with DNP-Ab/anti-Ab probe; conditions: 3.1×10^−12 g; reference without analyte −85 Hz (FIG. 25 curve c)
SMILES,binding of 5B3 mAb to hapten (5B3 antibody),crystal frequency change Δf (DNP-Ab/anti-Ab complex)
O=C(O)C1C=CC([N+](=O)[O-])=CC1(O)[N+](=O)[O-] (centres unmarked),does not bind avidly,–
O=[N+]([O-])c1ccc(O)c([N+](=O)[O-])c1,–,−12 Hz
